Data taken from patent publication US20240042259A1.

How the values were obtained:
[1] = Hydrolytic decontamination of methyl paraoxon followed by 31P NMR; conditions: for extent of hydrolysis of methyl paraoxon (disappearance of δ31P at −4.89): glycine buffer/DMSO, pH 9.5, 31P NMR
[2] = Hydrolytic decontamination of triphenyl phosphate followed by 31P NMR, pH 9.5; conditions: for extent of hydrolysis of triphenyl phosphate (disappearance of δ31P at −16.28): glycine buffer/DMSO, pH 9.5, 31P NMR
[3] = Hydrolytic decontamination of triphenyl phosphate at pH ~8.5 (31P NMR); conditions: DMSO, pH ~8.5 (aqueous KOH), 0.00765 mmol imine, 0.0153 mmol triphenyl phosphate
[4] = glycine buffer/DMSO 1:1, pH 9.5, 25° C.
[5] = listed as benzaldehyde aminoguanidine imine

Compound	reaction time for hydrolysis of methyl paraoxon (midpoint of NMR acquisition) [1, 4] [s]	extent of hydrolysis of methyl paraoxon (disappearance of δ31P at −4.89) [1]	extent of hydrolysis of methyl paraoxon (disappearance of δ31P at −4.89) [1, 5]	reaction time for hydrolysis of triphenyl phosphate (midpoint of NMR acquisition) [2, 4] [s]	extent of hydrolysis of triphenyl phosphate (disappearance of δ31P at −16.28) [2]	extent of hydrolysis of triphenyl phosphate (disappearance of δ31P at −16.28) [2, 5]	disappearance of triphenyl phosphate δ31P at −16.28 [3]	reaction time for hydrolysis of methyl paraoxon ([1]; glycine buffer/DMSO 1:1, pH 9.5, 25° C., 10 mM agent vs 1 mM methyl paraoxon)	reaction time for hydrolysis of triphenyl phosphate ([2]; glycine buffer/DMSO 1:1, pH 9.5, 25° C., 10 mM agent vs 1 mM triphenyl phosphate)	extent of hydrolysis of methyl paraoxon (disappearance of δ31P at −4.89) ([1]; listed as pyridine-4-adehyde aminoguanidine imine)	extent of hydrolysis of triphenyl phosphate (disappearance of δ31P at −16.28) ([2]; listed as pyridine-4-aldehyde aminoguanidine imine)
N=C(N)N/N=C/c1ccccc1	48	quantitatively	complete disappearance	48	quantitatively	complete disappearance					
benzaldehyde aminoguanidine imine							disappearance over time				
diacetyl monoxime	48			48				less than 1 min	less than 1 min		
N=C(N)N/N=C/c1ccncc1	48	quantitatively		48	quantitatively					complete disappearance	complete disappearance
